One test concerns the target T1, hTA1 I290Y (Homo sapiens, UniProt Q96RJ0, I290Y).
T1 construct: expressed in transfected cells; host or cells: HEK293T
T1 sequence (Q96RJ0 1-339 I290Y): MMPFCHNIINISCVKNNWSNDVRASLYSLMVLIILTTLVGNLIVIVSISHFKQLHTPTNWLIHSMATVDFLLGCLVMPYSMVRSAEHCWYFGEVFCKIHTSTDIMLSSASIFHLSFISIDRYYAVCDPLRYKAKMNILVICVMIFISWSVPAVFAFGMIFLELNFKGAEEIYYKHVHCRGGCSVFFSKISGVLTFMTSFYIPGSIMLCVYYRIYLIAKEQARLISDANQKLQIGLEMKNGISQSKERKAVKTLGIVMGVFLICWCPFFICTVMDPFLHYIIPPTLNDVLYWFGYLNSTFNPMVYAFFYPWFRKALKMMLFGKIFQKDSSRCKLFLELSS
As to the kind of experiment: GloSensor cAMP accumulation assay, I290Y mutant.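 Note: normalized to the maximum response of β-PEA.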 The following applies: hTA1 I290Y (N=3), log[Compound]. The class given is cell-based. On the technique in general: Cyclic AMP is a second messenger, typically raised through Gs and lowered through Gi signalling.

A further test has as its target T2, hTA1 (Homo sapiens, UniProt Q96RJ0).
T2 sequence (Q96RJ0 1-339): T1 sequence (Q96RJ0 1-339 I290Y) with Y290I
As to the kind of experiment: Screen of 89 aminergic compounds at 10 µM, cAMP accumulation in HEK293T cells.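 Note: HEK293T cells co-transfected with hTA1 and GloSensor cAMP reporter, cAMP accumulation detected by luminescence.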 It is filed as cell-based. Also on record: expressed in transfected cells; host or cells: HEK293T.

Residue numbers refer to the chain shown, from its start. Bounds are passed on as bounds.

With `NCCc1ccc(O)cc1` [TYR, tyramine], the “cAMP accumulation response, normalized (concentration-response source data, single replicate values)” value at hTA1 I290Y (M = -8.522) and at hTA1 I290Y (M = -10) was -1.842 throughout.
Regarding `CCCN1CCC[C@@H]2Cc3n[nH]cc3C[C@H]21` [quinpirole], the “increase of signal over DMSO-treated controls (hTA1 activation)” value on hTA1 is reported as ≥ 4 fold.
